From published antibiotic growth screens (doi:10.1038/s41589-023-01349-8)
The other results are listed elsewhere or left out.

These molecules were tested on A. baumannii ATCC 17978 (assay: relative growth (fraction of control); higher = less inhibition). Details: 50 µM.
Work on `COc1ccccc1-c1cc(=O)c2c(OC)cccc2o1` yielded a relative growth of 1.22. Molecule `CCCNC(=O)N1C[C@H](O)COC[C@H]2O[C@@H](CC(=O)N3CCN(C)CC3)CC[C@@H]21` has a relative growth of 0.998. `CC(C)CN1C(=O)[C@@]2(c3ccc([N+](=O)[O-])cc3)CC(=O)N(CC3C4CC5CC(C4)CC3C5)[C@@H]2c2ccc(CO)cc21` (stereo not given in full) gave a relative growth of 0.961. Work on `Cc1ccccc1CCCCN` yielded a relative growth of 0.982. For `O=C(C[C@H]1C[C@@H]2c3cc(NC(=O)C4CCOCC4)ccc3O[C@@H]2[C@H](CO)O1)NCc1ccc2c(c1)OCO2`, the relative growth was 1.04. With `CC(C)c1ccc(N2C=Nc3ccc(C(C)C)cc3C2)cc1` the relative growth was 0.751. For `COC(=O)c1c(CC[C@@H](CO)NC(=O)N[C@@H](Cc2ccccc2)Cn2cc(-c3ccccn3)nn2)oc(C(=O)N2CCOCC2)c1C(=O)OC`, the relative growth was 0.926. In the case of `NC(=O)NCC#Cc1ccc2c(c1)[C@]1(C(=O)N2)[C@H](C(=O)N2CCN(c3ncccn3)CC2)[C@H]2C(=O)O[C@H](c3ccccc3)[C@H](c3ccccc3)N2[C@@H]1c1ccccc1OCCO`, the relative growth is reported as 1.35. Work on `CN1CCCN=C1COC(=O)C(O)(c1ccccc1)C1CCCCC1.Cl` (stereo not given) yielded a relative growth of 0.967. `C[C@@H]1O[C@@H](O[C@@H]2[C@@H](O)[C@H](C)O[C@@H](OC[C@H]3O[C@@H](Oc4c(-c5ccc(O)c(O)c5)oc5cc(O)cc(O)c5c4=O)[C@@H](O)[C@@H](O)[C@@H]3O)[C@@H]2O)[C@H](O)[C@H](O)[C@H]1O` gave a relative growth of 1.11. `Cl.Cl.N=C(NCCCCCCNC(=N)NC(=N)Nc1ccc(Cl)cc1)NC(=N)Nc1ccc(Cl)cc1` showed a relative growth of 0.157. Molecule `COCC#Cc1ccc2c(c1)O[C@@H](CN(C)Cc1ccc3c(c1)OCO3)[C@@H](C)CN([C@H](C)CO)S2(=O)=O` has a relative growth of 0.773. With `CCN[C@H]1C[C@H](C)S(=O)(=O)c2sc(S(N)(=O)=O)cc21.Cl` the relative growth was 0.914. Work on `Cc1cccc(S(=O)(=O)N2C[C@H](O)COC[C@H]3O[C@H](CC(=O)N4CCN(C)CC4)CC[C@@H]32)c1` yielded a relative growth of 0.869. With `O=C(C[C@@H]1CC[C@@H]2[C@H](COC[C@H](O)CN2Cc2ccccc2F)O1)N[C@@H]1CCN(Cc2ccccc2)C1` the relative growth was 0.957. With `CCCCCCCC(=O)OCC(COC(=O)CCCCCCC)OC(=O)CCCCCCC` the relative growth was 1.29. For `O=S(=O)(NCC[C@@H]1CC[C@@H](NS(=O)(=O)c2ccccc2Cl)[C@@H](CO)O1)c1ccc(F)cc1`, the relative growth was 1.24. `Clc1ccc(COC(Cn2ccnc2)c2ccc(Cl)cc2Cl)cc1.O=[N+]([O-])O` (stereo not given) was tested, and the relative growth was 0.952. Molecule `O=C(NNC(=O)C1CCNCC1)c1cccnc1` has a relative growth of 0.992. Molecule `Cn1c(=O)c2c(ncn2CC2OCCO2)n(C)c1=O` has a relative growth of 0.891. `CCCNC(=O)N1C[C@H](O)COC[C@@H]2O[C@@H](CC(=O)NCCCN3CCOCC3)CC[C@H]21` showed a relative growth of 0.959. `CCC(=O)Nc1ccc2c(c1)C(=O)N(C)C[C@@H](OC)[C@@H](C)CN(C(=O)CN1CCOCC1)[C@@H](C)CO2` showed a relative growth of 1.02. With `C=CCN1C(=O)[C@]2(O[C@H](CCn3cc([C@H](O)c4ccccc4)nn3)[C@@H]([Si](C)(C)c3ccc(OC)cc3)[C@@H]2C)c2cc(N3C(=O)c4cccc5cccc3c45)ccc21` the relative growth was 1.15. `COc1ccc([C@H]([C@@H](O)Cc2ccccc2)N(C[C@H](/C=C/c2ccccc2)NC(=O)C(Cl)(Cl)Cl)[C@@H](Cc2ccccc2)C(OC)OC)cc1` showed a relative growth of 1.25. In the case of `COC(=O)C[C@@H]1CC[C@@H]2[C@H](COC[C@@H](O)CN2S(=O)(=O)c2ccccc2C)O1`, the relative growth is reported as 1.03. In the case of `O=C(O)CCCCC1SCC2NC(=O)NC21` (stereo not given), the relative growth is reported as 1.03. For `CC[C@@H](N)CC12CC3CC(CC(C3)C1)C2`, the relative growth was 0.901. `CN(C)c1cc(NC(=O)CNC(C)(C)C)c(O)c2c1C[C@H]1C[C@H]3[C@H](N(C)C)C(O)=C(C(N)=O)C(=O)[C@@]3(O)C(O)=C1C2=O` showed a relative growth of 0.996. `Nn1c(Cn2ccnc2)nnc1Cn1ccnc1` gave a relative growth of 1.1. Work on `COc1cccc(NC(=O)N2C[C@@H](O)COC[C@@H]3O[C@@H](CC(=O)NCc4ccccc4F)CC[C@H]32)c1` yielded a relative growth of 0.929. `COc1cc(NS(=O)(=O)c2ccc(N)cc2)nc(OC)n1` showed a relative growth of 1.04. `C=CCOC(=O)[C@@H]1[C@H]2C(=O)O[C@H](c3ccccc3)[C@H](c3ccccc3)N2[C@H](c2ccc(OCCOC(=O)NCCCCCC(=O)NO)cc2)[C@]12C(=O)Nc1ccccc12` was tested, and the relative growth was 0.942. Molecule `CC(=O)Oc1ccccc1C(=O)Nc1ccccc1` has a relative growth of 0.979. Work on `CO[C@@H]1CN(C)C(=O)c2ccc(NS(=O)(=O)CC(F)(F)F)cc2OC[C@H](C)N(Cc2cccnc2)C[C@H]1C` yielded a relative growth of 1.24. `O=C(CCCCCC(=O)N/N=C/[C@H](O)[C@@H](O)[C@@H](O)[C@H](O)C(=O)O)NO` showed a relative growth of 1.02. For `Cc1nc(=O)c(/C=N/O)c(O)[nH]1`, the relative growth was 0.98. `CC(=O)O[C@H]1C[C@@]2(C)[C@@H](C[C@@H](O)C3[C@]2(C)CC[C@H]2[C@H](C)[C@H](O)CC[C@]32C)/C1=C(/CCC=C(C)C)C(=O)O` (stereo not given in full) showed a relative growth of 0.535. Work on `Cc1cccc(Nc2ccncc2S(=O)(=O)NC(=O)NC(C)C)c1` yielded a relative growth of 1.09. In the case of `CCCNC(=O)C[C@@H]1CC[C@H]2[C@@H](COc3ccc(NS(=O)(=O)c4ccccc4C)cc3C(=O)N2C)O1`, the relative growth is reported as 0.982. Molecule `CO[C@@H](CN(C)S(=O)(=O)c1ccc(Cl)cc1)[C@@H](C)CN([C@H](C)CO)S(=O)(=O)c1cccc(Cl)c1` has a relative growth of 0.805.
